# Measured melting point values of organic chemicals

The melting point is given in degrees Celsius.
The databases behind each value are named after "via".

* CCC(=O)c1ccc(OCC(=O)O)cc1 [(4-Propionyl-phenoxy)-acetic acid]: mp 132 °C (via OCHEM)
* CC1(C)O[C@](C)(C(=O)O)CC[C@@H]1C(=O)O (relative stereo): mp 208 °C (via OCHEM)
* Nc1ccc2oc(=O)[nH]c2c1 [2-Benzoxazolinone, 5-amino-]: mp 205 °C (via OCHEM)
* BrCCOc1ccc2ccccc2c1 [2-(2-bromoethoxy)naphthalene]: mp 95 °C (via OCHEM)
* O=Cc1ccc(OCc2ccc(Cl)cc2)cc1 [4-[(4-Chlorobenzyl)oxy]benzaldehyde]: mp 73 °C (via OCHEM)
* O=C(O)C=Cc1csc2ccccc12 [3-(1-Benzothiophen-3-yl)prop-2-enoic acid]: mp 226 °C (via OCHEM)
* Cc1c(C(=O)CBr)oc2ccccc12 [2-Bromo-1-(3-methyl-1-benzofuran-2-yl)ethan-1-one]: mp 111 °C (via OCHEM)
* CCC1=C(O)C(=O)CC1 [3-Ethyl-2-hydroxy-2-cyclopenten-1-one]: mp 39 °C (via PubChem)
* CCCn1c(-c2ccncc2)n[nH]c1=S [4-propyl-5-pyridin-4-yl-4H-1,2,4-triazole-3-thiol]: mp 259 °C (via OCHEM)
* O=C(O)c1cc2ccc(F)cc2[nH]1 [6-Fluoroindole-2-carboxylic acid]: mp 228 °C (via OCHEM)
* Nc1sc2c(c1-c1nc3ccccc3[nH]1)CCCC2: mp 176 °C (via OCHEM)
* c1ccc2cc(C3CO3)ccc2c1 (stereo not drawn) [2-(Naphthalen-2-yl)oxirane]: mp 58 °C (via OCHEM)
* CC(=O)c1cnn(C)c1C [1-(1,5-dimethyl-1H-pyrazol-4-yl)ethanone]: mp 48 °C (via OCHEM)
* Cc1ccc2nc(NCc3ccccc3)sc2c1 [Benzyl-(6-methyl-benzothiazol-2-yl)-amine]: mp 176 °C (via OCHEM)
* Cc1ccc(NCCC#N)cc1 [3-p-Tolylamino-propionitrile]: mp 111 °C (via OCHEM)
* CC(=O)c1oc2ccccc2c1N [1-(3-Amino-benzofuran-2-yl)-ethanone]: mp 155 °C (via OCHEM)
* Cc1c(F)ccc([N+](=O)[O-])c1C [1-Fluoro-2,3-dimethyl-4-nitrobenzene]: mp 40.5 °C (via OCHEM)
* Nc1ccc(NS(=O)(=O)c2ccc(N)cc2)cc1 [Benzenesulfonamide, 4-amino-N-(4-aminophenyl)-]: mp 138.5 °C (via eChemPortal)
* c1ccc(CCNc2nc(-c3ccccc3)cs2)cc1 [Fanetizole]: mp 116 °C (via OCHEM)
* O=C(O)c1ccc(CS)cc1 [4-(Mercaptomethyl)benzoic acid]: mp 180 °C (via OCHEM)
* O=P(N1CC1)(N1CC1)N(/N=C/c1ccccc1)c1ccccc1 [TEPA,N-benzyliden-N-Ph-hydrazin1yl]: mp 114 °C (via OCHEM)
* NC(=O)NC(CC(=O)O)c1ccc(Cl)cc1 (stereo not drawn) [3-(Carbamoylamino)-3-(4-chlorophenyl)propanoic acid]: mp 199 °C (via OCHEM)
* CCN(CC)C(=O)c1ccc(N)cc1 [4-Amino-N,N-diethylbenzamide]: mp 119 °C (via OCHEM)
* Nc1nnc2ccc(Cl)nn12 [6-Chloro[1,2,4]triazolo[4,3-b]pyridazin-3-amine]: mp 275 °C (via OCHEM)
* Cc1ccc(NS(=O)(=O)c2ccc(N)cc2)cc1C [4-amino-N-(3,4-dimethylphenyl)benzenesulfonamide]: mp 151 °C (via OCHEM)
* CC12CCCC3(C1)C(OC=O)CC(C)(C)C3CC2 (stereo not drawn): mp -34.16 °C (via eChemPortal)
* CC(=O)c1ccc(-c2ccc(C=O)o2)cc1 [5-(4-Acetylphenyl)furan-2-carbaldehyde]: mp 134 °C (via OCHEM)
* O=C(O)C1CC(=O)N(c2ccccc2F)C1 (stereo not drawn) [1-(2-fluorophenyl)-5-oxopyrrolidine-3-carboxylic acid]: mp 132 °C (via OCHEM)
* COc1cccc(NC(=O)CC#N)c1 [2-cyano-N-(3-methoxyphenyl)acetamide]: mp 155 °C (via OCHEM)
* O=C(O)CC1C=CS(=O)(=O)C1 (stereo not drawn): mp 82 °C (via OCHEM)
* Cn1ccc(C(=O)O)cc1=O [1-methyl-2-oxo-1,2-dihydropyridine-4-carboxylic acid]: mp 220 °C (via OCHEM)
* O=C(O)CCc1ccc2c(c1)OCCO2 [3-(2,3-dihydro-1,4-benzodioxin-6-yl)propanoic acid]: mp 65 °C (via OCHEM)
* COC(=O)c1ccc(C(F)(F)F)cc1N [Methyl 2-amino-4-(trifluoromethyl)benzoate]: mp 59 °C (via OCHEM)
* NC(=O)Cc1nc2ccccc2[nH]1 [1H-Benzimidazole-2-acetamide]: mp 230 °C (via OCHEM)
* Oc1ccc2c(n1)CCC2 [6,7-Dihydro-5H-cyclopenta[b]pyridin-2-ol]: mp 37 °C (via OCHEM)
* COc1ccc(Nc2ccccc2)cc1 [N-Phenyl-p-anisidine]: mp 105 °C (via OCHEM)
* Cc1ccccc1C(=O)NC1CCNCC1 [2-methyl-N-piperidin-4-ylbenzamide]: mp 130 °C (via OCHEM)
* O=C(Cc1ccccc1)Nc1ccccc1C(=O)O [2-[(phenylacetyl)amino]benzoic acid]: mp 193 °C (via OCHEM)
* O=C(CCl)Nc1ccc(-c2ccccc2)cc1 [N-1,1'-biphenyl-4-yl-2-chloroacetamide]: mp 122 °C (via OCHEM)
* CCCNS(=O)(=O)c1cccc(C(=O)O)c1 [3-Propylsulfamoyl-benzoic acid]: mp 200 °C (via OCHEM)
* O=C(O)Cn1ccc([N+](=O)[O-])n1 [(3-Nitro-1H-pyrazol-1-yl)acetic acid]: mp 173 °C (via OCHEM)
* Cc1cccc(OCCC(=O)O)c1 [3-(3-methylphenoxy)propanoic acid]: mp 100 °C (via OCHEM)
* COc1ccc(OCCCC(=O)O)cc1 [4-(4-methoxyphenoxy)butanoic acid]: mp 103 °C (via OCHEM)
* NC(=S)N1CCCC1 [pyrrolidine-1-carbothioamide]: mp 141 °C (via OCHEM)
* O=C(O)c1cc(-c2ccc(-c3ccccc3)cc2)nc2ccccc12 [2-Biphenyl-4-yl-quinoline-4-carboxylic acid]: mp 290 °C (via OCHEM)
* C1CCC(NC2=NCCCS2)CC1 [Cyclohexyl-(5,6-dihydro-4H-[1,3]thiazin-2-yl)-amine]: mp 113 °C (via OCHEM)
* Cc1cccc(O)c1Cl [2-Chloro-m-cresol]: mp 56 °C (via OCHEM)
* CC(CN1c2ccccc2Sc2ccccc21)[N+](C)(C)C.COS(=O)(=O)[O-] (stereo not drawn) [Thiazinamium methyl sulfate]: mp 208 °C (via OCHEM)

Excerpt, the final 7 entries:

- Cc1cccc(OCCC(=O)O)c1 [3-(3-methylphenoxy)propanoic acid]: mp 100 °C (via OCHEM)
- COc1ccc(OCCCC(=O)O)cc1 [4-(4-methoxyphenoxy)butanoic acid]: mp 103 °C (via OCHEM)
- NC(=S)N1CCCC1 [pyrrolidine-1-carbothioamide]: mp 141 °C (via OCHEM)
- O=C(O)c1cc(-c2ccc(-c3ccccc3)cc2)nc2ccccc12 [2-Biphenyl-4-yl-quinoline-4-carboxylic acid]: mp 290 °C (via OCHEM)
- C1CCC(NC2=NCCCS2)CC1 [Cyclohexyl-(5,6-dihydro-4H-[1,3]thiazin-2-yl)-amine]: mp 113 °C (via OCHEM)
- Cc1cccc(O)c1Cl [2-Chloro-m-cresol]: mp 56 °C (via OCHEM)
- CC(CN1c2ccccc2Sc2ccccc21)[N+](C)(C)C.COS(=O)(=O)[O-] (stereo not drawn) [Thiazinamium methyl sulfate]: mp 208 °C (via OCHEM)

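These are experimental values that the OPERA curators gathered from public databases to train and test their QSAR models. One number stands for a compound and property, with no spread given. Method, purity and exact conditions of the single measurements are not given. A value may pool stereoisomers or salt forms, and the file does not say which form was measured. Some entries may be limits or estimates that an upstream database listed as plain numbers.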

Data: OPERA 2.9 data sets, kmansouri/OPERA on GitHub.